# Assays:
# [1] = target: Nluc-M1R(Nterm) (Homo sapiens, UniProt P11229); test: BRET saturation binding at intact HEK293T cells; details: mean ± SEM
# [2] = target: Nluc-M1R(G176) (Homo sapiens, UniProt P11229); test: BRET saturation binding at intact HEK293T cells; details: mean ± SEM
smiles,measurement,setting,value
Cc1cc(C=Cc2cc3c4c(c2)CCCN4CCC3)cc(C)[n+]1CCNC(=O)CCc1cn(CCCCC2CCN(CC(=O)N3c4ccccc4NC(=O)c4ccccc43)CC2)cn1,pKd (BRET),[1],8.04 ± 0.04
same,pKd (BRET),[2],8.60 ± 0.06
